Data as given in patent US20130165628A1, “Double Binding Constructs” (SRI INTERNATIONAL, priority 2011, published 2013).

Test: In vivo half life of hSA-binder/flag/biotin 26-amino acid constructs
Conditions: in vivo experimentation
Experimental: 26-amino acid sequences were prepared, each comprising an hSA binder portion (11 amino acids and comprising a cysteine-proline-cysteine sequence capable of forming a disulfide bridge and a turn in the molecule), a first spacer (3 amino acids), a flag portion (8 amino acids), and a second spacer (4 amino acids). The second spacer terminated in an amino group and also comprised a covalently attached biotin moiety. At the other terminus, an acetyl group was present. Three different sequences were prepared, with the final amino acid at the acetyl-terminus varied between alanine (the control compound), arginine (construct 1), and lysine (construct 2).

Row | SMILES | half-life
1 | CC[C@H](C)[C@H](NC(=O)[C@H](CC(C)C)NC(=O)[C@H](CCCNC(=N)N)NC(C)=O)C(=O)N[C@@H](CCC(=O)O)C(=O)N[C@@H](CC(=O)O)C(=O)N[C@H](C(=O)N[C@H]1CSSC[C@@H](C(=O)N[C@@H](CC(C)C)C(=O)N[C@@H](Cc2c[nH]c3ccccc23)C(=O)NCCC(=O)N[C@@H](CO)C(=O)NCC(=O)N[C@@H](CC(=O)O)C(=O)N[C@@H](Cc2ccc(O)cc2)C(=O)N[C@@H](CCCCN)C(=O)N[C@@H](CC(=O)O)C(=O)N[C@@H](CC(=O)O)C(=O)N[C@@H](CC(=O)O)C(=O)N[C@@H](CC(=O)O)C(=O)N[C@@H](CCCCN)C(=O)NCCC(=O)N[C@@H](CO)C(=O)NCC(=O)N[C@@H](CCCCNC(=O)CCCC[C@@H]2SC[C@@H]3NC(=O)N[C@@H]32)C(N)=O)NC(=O)[C@@H]2CCCN2C1=O)[C@@H](C)CC [construct 1] | 2040 min
2 | CC[C@H](C)[C@H](NC(=O)[C@H](CC(C)C)NC(=O)[C@H](CCCCN)NC(C)=O)C(=O)N[C@@H](CCC(=O)O)C(=O)N[C@@H](CC(=O)O)C(=O)N[C@H](C(=O)N[C@H]1CSSC[C@@H](C(=O)N[C@@H](CC(C)C)C(=O)N[C@@H](Cc2c[nH]c3ccccc23)C(=O)NCCC(=O)N[C@@H](CO)C(=O)NCC(=O)N[C@@H](CC(=O)O)C(=O)N[C@@H](Cc2ccc(O)cc2)C(=O)N[C@@H](CCCCN)C(=O)N[C@@H](CC(=O)O)C(=O)N[C@@H](CC(=O)O)C(=O)N[C@@H](CC(=O)O)C(=O)N[C@@H](CC(=O)O)C(=O)N[C@@H](CCCCN)C(=O)NCCC(=O)N[C@@H](CO)C(=O)NCC(=O)N[C@@H](CCCCNC(=O)CCCC[C@@H]2SC[C@@H]3NC(=O)N[C@@H]32)C(N)=O)NC(=O)[C@@H]2CCCN2C1=O)[C@@H](C)CC [construct 2] | 3180 min
3 | CC[C@H](C)[C@H](NC(=O)[C@H](CC(C)C)NC(=O)[C@H](C)NC(C)=O)C(=O)N[C@@H](CCC(=O)O)C(=O)N[C@@H](CC(=O)O)C(=O)N[C@H](C(=O)N[C@H]1CSSC[C@@H](C(=O)N[C@@H](CC(C)C)C(=O)N[C@@H](Cc2c[nH]c3ccccc23)C(=O)NCCC(=O)N[C@@H](CO)C(=O)NCC(=O)N[C@@H](CC(=O)O)C(=O)N[C@@H](Cc2ccc(O)cc2)C(=O)N[C@@H](CCCCN)C(=O)N[C@@H](CC(=O)O)C(=O)N[C@@H](CC(=O)O)C(=O)N[C@@H](CC(=O)O)C(=O)N[C@@H](CC(=O)O)C(=O)N[C@@H](CCCCN)C(=O)NCCC(=O)N[C@@H](CO)C(=O)NCC(=O)N[C@@H](CCCCNC(=O)CCCC[C@@H]2SC[C@@H]3NC(=O)N[C@@H]32)C(N)=O)NC(=O)[C@@H]2CCCN2C1=O)[C@@H](C)CC [control, reference compound] | 9.6 min
